# In ChEMBL document CHEMBL2311251, “Synthesis and structure-activity relationship of piperidine-derived non-urea soluble epoxide hydrolase inhibitors” (Bioorg Med Chem Lett, 2013):
# System: Liver microsomes
# Test: Half life in human liver microsomes after 90 mins by LC/MS analysis
# Format: ADME, Microsome
# Conditions: 1.5 h
smiles,measurement,value
Cc1ccc(S(=O)(=O)N2CCC(C(=O)NC3CCCCCC3)CC2)c(C)c1,t1/2,5.5 min
